# AlphaSeq binding of Ab-14 light chain variants to a spike HR2 peptide

All variants were tested on one target, the spike HR2 peptide PDVDLGDISGINAS (SARS-CoV-2).

The variants keep the heavy chain, the linker and the frameworks of Ab-14 (scFv order VH, a (GGGGS)3 linker, VL).
VH: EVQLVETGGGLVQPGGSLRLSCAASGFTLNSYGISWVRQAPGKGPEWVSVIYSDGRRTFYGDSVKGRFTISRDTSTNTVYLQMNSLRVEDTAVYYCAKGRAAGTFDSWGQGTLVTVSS
VL: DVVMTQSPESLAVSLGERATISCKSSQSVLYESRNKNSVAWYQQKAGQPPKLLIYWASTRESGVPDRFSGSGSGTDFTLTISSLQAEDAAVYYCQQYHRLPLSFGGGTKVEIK

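The parent was found by panning a naive human phage display library on the peptide. Designed CDR sequences, proposed from the first random library and measured here. Their group label is 14L_Ctrl (Ctrl: baseline library sampled from a position-specific scoring matrix, with some repeated check sequences). In AlphaSeq, yeast of one mating type display the scFv and yeast of the other type display the target. Binding brings cells together so that they mate, and sequencing counts the barcode pairs among the diploids. The ratio of observed to expected reads was calibrated, replicate by replicate, on BCL2-family standards whose Kd was known from biolayer interferometry. Mating was done six times.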

Variants are written as CDR1, CDR2 and CDR3 of the light chain (limits as in the source). Parent: KSSQSVLYESRNKNSVA, WASTRES, QQYHRLPLS.
Values are log10 of the apparent Kd in nM; lower means stronger binding.
Averages over replicates are reported, and they cover detected replicates only.
A pair that was not seen in that replicate is written "nd"; this usually means weak binding, but a binder can also be missed.
Values of this round are not directly comparable with the first-round values of the same sequences.

For KCSQSVLYEGRNKNSVA, AASTRES, QQYHRLPLS, the assay gave -0.04, -0.25, -0.31, -0.30, -0.12, -0.04 (mean -0.18; controls 0 of 18).
For KCSNSVLYESRNKNSVA, WASTRES, QQYFRLPLS, the assay gave nd, 1.73, nd, 1.07, 1.83, 1.54 (mean 1.54; controls 0 of 18).
For KSSQSVLYEQRNKNSVA, WASTRWS, QQYHRLPLS, the assay gave 0.56, 0.40, 0.60, 1.12, 1.00, 1.16 (mean 0.81; controls 1 of 18).
For KLSQSVLYESRNKNSVA, QASTRES, QWYHRLPLD, the assay gave nd, nd, nd, nd, nd, nd (controls 2 of 18).
For LSSQSGLYESRNKNSVA, WASTRES, QQYHRLPLS, the assay gave nd, 2.00, nd, nd, 2.49, 2.04 (mean 2.18; controls 1 of 18).
For KSSWSVLYESRNKFSVA, KASTRES, QQYHRLPFS, the assay gave nd, 1.72, nd, nd, 1.54, 3.45 (mean 2.24; controls 1 of 18).
For KSSQSVLYESKNKNSVA, WASVRES, QQYHRWPLS, the assay gave nd, 3.30, nd, nd, nd, nd (controls 1 of 18).
For KISQSVLQESRNMNSVA, WASTRES, QQYHRLPLS, the assay gave 0.87, 0.89, 0.71, 0.72, 0.67, 0.94 (mean 0.80; controls 4 of 18).
For KGSQSVLYESRNKNSVA, SASTRES, SQYHRLPLS, the assay gave 1.82, 1.61, 1.35, 0.89, 1.41, 0.87 (mean 1.32; controls 0 of 18).
For KSSQSVLYESNNKNSVA, WASTRES, QQYHMLPLS, the assay gave 2.27, 1.27, 3.11, 1.25, 1.98, 1.47 (mean 1.89; controls 0 of 18).
For KMSQPVLYESRNKNSVA, WASQRES, QQYHRLPLS, the assay gave 0.72, 1.44, 1.22, 0.70, 0.67, 1.15 (mean 0.98; controls 2 of 18).
For KSSQSVLYESRNKNSVA, AASTRSS, QQHHRLPLS, the assay gave 1.99, 1.80, 3.24, 3.14, 2.24, 1.46 (mean 2.31; controls 0 of 18).
For KSDQSVLYESRNKNSVA, WASTRES, QQYHRLPLS, the assay gave nd, nd, nd, nd, nd, nd (controls 0 of 18).
For KSSCSVLYESRNKNSVA, DGSTRES, QQYHRLPLS, the assay gave 0.03, -0.18, 0.02, -0.18, -0.14, -0.11 (mean -0.09; controls 0 of 18).
For KMSQSVLYESRNKNSVA, WASTRES, FQYHHLPLS, the assay gave nd, 1.50, 1.88, 3.80, nd, nd (mean 2.39; controls 1 of 18).
For KTSQPGLYESRNKNSVA, WASTRES, QQYCRLPLS, the assay gave nd, nd, nd, nd, nd, nd (controls 0 of 18).
For HSSGSVLYESRNKQSVA, WGSTRES, FQYHRLPLS, the assay gave nd, nd, nd, nd, nd, nd (controls 0 of 18).
For KISQSVLYEDRNLNSVA, WASTRES, QQHHRLPLS, the assay gave nd, nd, nd, nd, 2.86, nd (controls 0 of 18).
For KSSQSKLYESRNKNSVA, WASTRCS, QQYHRLPLS, the assay gave nd, nd, 2.32, 2.20, nd, 2.05 (mean 2.19; controls 0 of 18).
For KSSLSGLYESRNKHSHA, WASTRES, QQYHRLPLS, the assay gave nd, nd, nd, nd, nd, nd (controls 0 of 18).
For KSSQSVLSEERNKNSVA, QASTRES, QQYHRLPLS, the assay gave -0.08, -0.29, -0.16, -0.55, -0.35, -0.37 (mean -0.30; controls 2 of 18).
For KSSQSVLYESQEKNSVA, WASTRES, QQYHRLPLS, the assay gave 1.61, 1.69, 1.41, 1.48, 1.47, 1.81 (mean 1.58; controls 4 of 18).
For KSSQSVLYESRNKNSVA, EASTREV, QQYHRLELS, the assay gave 0.78, 1.05, 1.02, 0.89, 0.89, 1.45 (mean 1.01; controls 1 of 18).
For KSSQSVLYEDRNKNSVA, QASTRES, QQYHRLPLS, the assay gave 1.13, 0.91, 1.26, 1.19, 1.35, 0.73 (mean 1.09; controls 0 of 18).
For KMIQHDLYESRNKNSVA, WASTRES, QQYHRLPLS, the assay gave 2.13, 1.69, 1.19, 1.89, 1.90, 2.25 (mean 1.84; controls 1 of 18).
For KSSQSGLYESRNKNSVA, TASTRES, QQKHRLPLS, the assay gave 0.64, 0.86, 0.39, 0.76, 0.81, 1.29 (mean 0.79; controls 0 of 18).
For KSAQSVLYESFNKNSVA, AASTRES, QQHCRLPLS, the assay gave nd, nd, nd, nd, nd, nd (controls 1 of 18).
For KSSQSVVYESRNCNSVA, WASTRES, QQYHRWPLS, the assay gave nd, nd, nd, nd, nd, nd (controls 0 of 18).
For KSSQSVLYNSRNKNSCA, WASTRAS, QQYHRLPLS, the assay gave 1.33, 0.75, 1.09, 0.95, 0.69, 0.95 (mean 0.96; controls 0 of 18).
For KSIQSVLDESRTNNSVA, WASTRES, SQYHRLPLS, the assay gave nd, nd, nd, nd, 3.22, nd (controls 1 of 18).
For KSSQSVPYESRNKNGVA, WASTRES, QQYHRLPLS, the assay gave nd, nd, nd, nd, nd, nd (controls 0 of 18).
For KSSQSVLYESRNKNCVA, DASTREE, QQYHRLPLS, the assay gave -0.08, 0.10, 0.04, -0.20, -0.45, 0.40 (mean -0.03; controls 1 of 18).
For KSSQSVLYESRNKNSVA, YASARES, QQYARLPLS, the assay gave nd, 2.58, nd, nd, nd, nd (controls 0 of 18).
For KSSQSVLYESRNKNSVA, EATTRES, QQYHRLPLS, the assay gave 1.25, 0.82, 1.23, 0.93, 0.90, 1.07 (mean 1.03; controls 0 of 18).
For KSSQSALVESRESNSVA, WASCRES, QQYHRLPLW, the assay gave nd, nd, nd, nd, nd, nd (controls 0 of 18).
For KSSQSVLPVSRNKNSVA, WASTRES, QQYHRLPLS, the assay gave nd, nd, nd, nd, nd, nd (controls 0 of 18).
For KFTISVLYESRNVNSVA, QASTRES, QQYSRLPLS, the assay gave 0.88, 0.41, 0.66, 0.62, 0.40, 0.68 (mean 0.61; controls 3 of 18).
For RSSISVLYELRNKNSVA, WASTRES, QQYHRLPLS, the assay gave nd, nd, nd, nd, nd, nd (controls 0 of 18).
For KSSDSVLYESRNKNSVA, EASTRES, QQYHWLPLS, the assay gave 1.68, 1.04, 1.47, 1.20, 0.97, 1.47 (mean 1.31; controls 2 of 18).

Again, the first 4 entries without any signal:

Variant KLSQSVLYESRNKNSVA, QASTRES, QWYHRLPLD showed nd, nd, nd, nd, nd, nd (controls 2 of 18).
Variant KSDQSVLYESRNKNSVA, WASTRES, QQYHRLPLS showed nd, nd, nd, nd, nd, nd (controls 0 of 18).
Variant KTSQPGLYESRNKNSVA, WASTRES, QQYCRLPLS showed nd, nd, nd, nd, nd, nd (controls 0 of 18).
Variant HSSGSVLYESRNKQSVA, WGSTRES, FQYHRLPLS showed nd, nd, nd, nd, nd, nd (controls 0 of 18).

Nonspecific signal, from three strains lacking the peptide, appeared in 4% of pairings of all light chain designs, centred on 2.64 (5% of these signals below 1.59); values are not corrected for it. Also given: how often the same scFv was detected with the empty control strains.
In the paper, a design with two or fewer of six values counts as a poor binder.

Source: Li et al. 2023 (doi:10.1038/s41467-023-39022-2), MIT Lincoln Laboratory and A-Alpha Bio; data file from the FLAb repository.